What was measured:
Assay type in all cases: cell-based
CPS1 = assay: RNA-seq, CPS1 expression in compound-treated primary human hepatocytes
ARG1 = assay: RNA-seq, ARG1 expression in compound-treated primary human hepatocytes; details: compounds that significantly increase ARG1 expression
SLC25A15 = assay: RNA-seq, SLC25A15 expression in compound-treated primary human hepatocytes; details: compounds that significantly increase SLC25A15 expression

Substance: GZD824 Dimesylate
- Fold change (Log 2) vs untreated (CPS1): 3.39 Log 2
- ARG1 expression, Fold change (Log 2) vs untreated (ARG1): 1.06 Log 2
- SLC25A15 expression, Fold change (Log 2) vs untreated (SLC25A15): 0.73 Log 2

Reference: patent publication US20200316038A1, “METHODS AND COMPOSITIONS FOR TREATING UREA CYCLE DISORDERS, IN PARTICULAR OTC DEFICIENCY” (CAMP4 THERAPEUTICS CORPORATION, priority 2017, published 2020)
